Laboratory results: patent publication US20250205350A1, “Antibody-Drug Conjugates and Uses Thereof” (Vivasor, Inc., priority 2022, published 2025)

Test system: NCI-N87 xenograft
Test: In vivo efficacy in NCI-N87 xenograft in Nu/Nu nude mice
Experimental: Her2 antibody Herceptin (Trastuzumab) was purchased from Myonex LLC (Horsham, PA, USA).
Female Nu/Nu mice, 6 weeks of age, were purchased from Charles River Laboratories (Wilmington, MA). Upon receipt, groups of 5 mice were housed per cages in a controlled environment vivarium and allowed to acclimate for 72 hours prior to experimentation. Rodent chow and water were provided ad libitum. Animal health status was determined during the acclimation period. Each cage was identified by group number and study number, and mice were individually identified using ear tags. The study was conducted under approved IACUC protocols and were performed in the vivarium at Sorrento Therapeutics Inc (4955 Directors Places, San Diego, CA), which was managed by Explora BioLabs (San Diego, CA).
Animals were observed twice weekly for general clinical conditions including viability, mortality, mobility, posture, body weight (BW) and other signs of distress. If animals became moribund or lost >15% of their BW due to toxicity, or the combination of toxicity and disease, they were euthanized and recorded.
Human gastric cancer cell line NCl-N87 cells were cultured and expanded in RPMI 1640 medium (catalog #10^−041-CV, Corning, Corning, NY) supplemented with 10% FBS (catalog #FB-02, Omega Scientific, Tarzana, CA) at 37° C. in a 5% CO2 humidified environment for a period of 2-3 weeks before harvesting for implantation. Cell viability determined by Trypan blue dye exclusion assay on a Countess II Automated Cell Counter (catalog #AMQAX1000, Invitrogen, Carlsbad, CA) and was >90% before implantation. […]
Tumor volume measurement was started 11 days after tumor cell inoculation and performed twice a week after initial dosing. The longest longitudinal diameter as length and the widest transverse diameter as width were measured by using a digital caliper (catalog #62379-531, VWR, Radnor, PA). Tumor volume (TV) were then calculated by the formula: TV=[length×(width)^2]/2 and were analyzed in Excel (Microsoft Office, Redmond, WA.). […]

Trastuzumab [Her2 Ab (Trastuzumab)]
TGI % (Day 28) (3 mg/kg, i.v., once, Day 28): 46.5%
TR % (Day 28) (3 mg/kg, i.v., once, Day 28): 0.0%
growth of NCl-N87 tumors compared to vehicle PBS (in words) (after 1-3 weeks of treatment): significantly and quickly inhibited the growth
